Values quoted from earlier work, collected in paper PMC12028738 (Marine Drugs, 2025).

Target: immobilized PD-L1 proteins
Details: PD-1 with immobilized PD-L1, read-out: equilibrium dissociation constant (KD), cited from earlier work
From the text: In recent years, anti-PD-1 and anti-PD-L1 antibodies have achieved great clinical success in cancer immunotherapy. In addition, peptide and small molecule inhibitors of PD-1/PD-L1 also attract much attention. Antitumor peptides have some advantages in comparison with antibodies, e.g., low production costs, easy to transport and store, and good stability. Programmed death ligand 1 (PD-L1) is a transmembrane protein consisting of 290 amino acids, also known as B7 homolog 1 (B7-H1) or cluster of differentiation (CD274). PD-L1 together with PD-L2 (CD273) serve as ligands of pr ...

## programmed death 1 [PD-1]
Ref 36
  Kd: 1.56 µM
Ref 37
  Kd: 1.15 µM
Ref 38
  Kd: 8.2 µM

Where two headings read alike, the source gives them in different places.
